Reference: patent publication US8999691B2 (priority 2010, dated 2015)

Test system: OC[C@H]1OC(O)[C@H](O)[C@@H](O)[C@@H]1O
Assay: purified protein, by the assay type
Settings: other: glucose 1-40 mM, DCIP 0.3 mM/PMS 0.6 mM, pH 6.5, partially purified enzyme, 20.0 °C

Botryotinia fuckeliana glucose dehydrogenase (Bfu-GDH, FAD-GDH), wild type, SEQ ID NO:2 (Botrytis cinerea B05.10)
Km: 60.3 mM
